{"sequences": {"note": "Chains of the proteins cited; added tags and fusions are not shown. Residues count along the entry.", "UniProt P05182, 2-493 limits assumed": "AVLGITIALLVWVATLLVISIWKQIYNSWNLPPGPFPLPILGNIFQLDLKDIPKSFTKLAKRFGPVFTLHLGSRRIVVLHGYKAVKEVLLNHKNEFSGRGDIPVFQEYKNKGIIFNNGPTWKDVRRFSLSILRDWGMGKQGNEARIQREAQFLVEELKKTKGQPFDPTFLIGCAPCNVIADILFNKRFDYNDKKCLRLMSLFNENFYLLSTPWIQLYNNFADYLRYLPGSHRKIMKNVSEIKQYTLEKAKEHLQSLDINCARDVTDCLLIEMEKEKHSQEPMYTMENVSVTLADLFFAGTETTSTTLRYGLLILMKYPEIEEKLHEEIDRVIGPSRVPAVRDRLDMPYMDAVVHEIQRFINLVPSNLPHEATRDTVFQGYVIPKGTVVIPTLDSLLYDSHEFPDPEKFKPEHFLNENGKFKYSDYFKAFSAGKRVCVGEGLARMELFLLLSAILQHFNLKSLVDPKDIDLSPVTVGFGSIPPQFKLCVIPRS"}, "source": "paper PMC4658230", "about": "(Toxicology, 2015)", "key": {"mtCYP2E1 [1]": {"biological_target": "T1, mtCYP2E1 (Rattus norvegicus, UniProt P05182)", "conditions": "low concentration (10 μM); equal CYP2E1 levels in each compartment assumed"}, "erCYP2E1 [2]": {"biological_target": "T2, erCYP2E1 (Rattus norvegicus, UniProt P05182)", "experiment": "Steady-state kinetics of substrate oxidation by rat liver microsomes"}, "mtCYP2E1 [3]": {"biological_target": "T1, mtCYP2E1"}, "erCYP2E1 [4]": {"biological_target": "T2, erCYP2E1", "conditions": "equal CYP2E1 levels in each compartment assumed"}}, "note": "Like-named read-outs stand apart in the source and are kept apart here.", "data": [{"molecule": "C=Cc1ccccc1", "note": "[styrene]", "values": [{"measurement": "percent of total metabolism through mtCYP2E1", "setting": "mtCYP2E1 [1]", "result": "two-thirds"}, {"measurement": "Preferred Mechanism", "setting": "erCYP2E1 [2]", "result": "Two-Site Model, ESS active only"}, {"measurement": "affinity of second molecule greater than first molecule", "setting": "erCYP2E1 [2]", "result": "three-fold"}, {"measurement": "Kss", "setting": "erCYP2E1 [2]; pH 7.4", "result": "32 (2 to 64) μM"}, {"measurement": "Preferred Mechanism", "setting": "mtCYP2E1 [3]", "result": "One-Site Model (Michaelis-Menten)"}, {"measurement": "turnover rate of mtCYP2E1 lower than erCYP2E1", "setting": "mtCYP2E1 [3]", "result": "six-fold"}, {"measurement": "percent of total metabolism through erCYP2E1", "setting": "erCYP2E1 [4]; high concentration (500 μM)", "result": 85, "unit": "%"}, {"measurement": "percent of total metabolism through erCYP2E1", "setting": "erCYP2E1 [4]; low concentration (10 μM)", "result": "one-third"}]}]}
